This is a sample that favours compounds with a hit; in the whole collection about 16% have one here.
TDP1 cell noCPT – qHTS for Inhibitors of human tyrosyl-DNA phosphodiesterase 1 (TDP1): qHTS in cells in absence of CPT; DT40 Tdp1-/- hTDP1 cells, no CPT, ATP luminescence, 48 h; Potency, µM (series often up to 46.2 µM), inactives show at the top dose activity change, negative = growth inhibition, most hits filed as inhibitors; 420,000 tested, 15% active; AID 686978, 2013; note: potency is the fitted concentration of half-maximal effect; % is set by controls: 0 for no effect and ±100 for the full control effect; nearly all actives have a fitted effect of over 55% in size
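Chicken DT40 Tdp1-/- cells complemented with human TDP1, screened without camptothecin (DMSO vehicle only), 400 cells/well. Compounds pin-transferred, cells incubated at 37 °C for at least 48 hr. Growth read as ATP-dependent luminescence (CellTiter-Glo, 30 min at RT).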
TDP1 block – TDP1 (human) enzyme inhibition; Q9NUW8; 350,000 tested, 0.28% active; recombinant TDP1, AlphaScreen DNA substrate cleavage; Potency, µM (highest dose often 130 µM), for inactives: top-dose activity change, negative = inhibition, hits mostly inhibitors; note: potency is the fitted concentration of half-maximal effect; % is set by controls: 0 for no effect and ±100 for the full control effect; nearly all actives have a fitted effect of over 40% in size
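Enzyme-compound mixtures sat 15 min at room temperature, followed by a 5 min reaction with 15 nM final substrate and 10 min with AlphaScreen beads. Recombinant human Tdp1 was used at 1 nM final.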
uPA generation – inhibitors of cell surface uPA generation. cell surface uPA generation assay, qHTS. Potency, µM (doses to about 38.3 µM), for inactives: top-dose activity change, negative = inhibition, usual class: inhibitors. 330,000 tested, 0.31% active. AID 540303; active = well fitted inhibition curve with a large enough effect; inconclusive = small, poorly fitted or top-dose-only effect; inactive = no such curve, though single readings can be large or run the other way; tested in mouse RAW 264.7 cells; note: potency is the fitted concentration of half-maximal effect; % is set by controls: 0 for no effect and ±100 for the full control effect; nearly all actives have a fitted effect of over 55% in size
TDP1 cell CPT – growth inhibition of DT40 Tdp1-/-;hTDP1 cells with camptothecin (screen for TDP1 inhibitors) | 420,000 tested, 12% active | Potency, µM (titrated, usually from 46.2 µM), without a hit: at the highest dose activity change, negative = growth inhibition, actives largely listed as inhibitors | chicken DT40 Tdp1-/-;hTDP1 cells + 20 nM CPT, ATP luminescence, 48 h | AID 686979; note: potency is the fitted concentration of half-maximal effect; % is set by controls: 0 for no effect and ±100 for the full control effect; nearly all actives have a fitted effect of over 55% in size
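Cell growth measured by CellTiter-Glo luminescence after a minimum 48 h, 37 C compound exposure with 20 nM CPT in Tdp1-knockout DT40 cells stably expressing hTDP1, seeded 400/well; qHTS titration format.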
miR-21 reporter – raises the signal of a miR-21 reporter | HeLa miR-21 FLuc reporter, luciferase, 48 h | Potency, µM (doses to about 38.3 µM), without a hit: at the top dose reporter change, positive = more light | 340,000 tested, under 10 active | AID 2288; active = well fitted rising curve with a large enough effect; inconclusive = small, poorly fitted or top-dose-only effect; inactive = no such curve, though single readings can be large or run the other way;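 note: % of control where 0% means no effect; miR-21 action dims this reporter so a rising signal means less miR-21 action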
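HeLa cells stably expressing CMV-driven firefly luciferase with a downstream miR-21 binding sequence, endogenously expressing miR-21, were treated with titrations (up to about 40uM final) for 48 hours at 37 degree Celsius. Luciferase luminescence was read after lysis.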
Active calls of the source: *; ? = inconclusive; / = no result. Unless noted, calls come from the whole dose curve; as a rule, active = well fitted curve in the direction sought with a large enough effect; inconclusive = small, poorly fitted or top-dose-only effect, or another doubt; inactive = no such curve, though single readings can be large; an effect the other way counts as inactive or inconclusive.

Field names: A = TDP1 cell noCPT; B = TDP1 block; C = uPA generation; D = TDP1 cell CPT; E = miR-21 reporter
#1 COc1cccc(N(C(=O)CNC(=O)c2ccco2)C(C(=O)NC2CCCC2)c2cccnc2)c1 (configuration not stated)
  A: -6.4%; B: 10.8%; C: /; D: 1.0%; E: -4.2%
#2 CCc1ccc2[nH]c(=O)c(CN(CCN(CC)CC)C(=S)NCc3ccco3)cc2c1
  A: ?; B: 6.0%; C: ?; D: ?; E: -1.8%
#3 CSc1ccc(CCNC(=O)CCn2c(=O)c3cccn3c3ccc(F)cc32)cc1
  A: ?; B: -1.3%; C: /; D: ?; E: -1.2%
#4 CCOc1ccc(CCNC(=O)CCn2c(=O)c3cccn3c3ccc(F)cc32)cc1OCC
  A: 13µM*; B: 5.2%; C: /; D: ?; E: -0.7%
#5 COc1ccc(CCNC(=O)CCn2c(=O)c3cccn3c3ccc(F)cc32)cc1OC
  A: 16.4µM*; B: 3.9%; C: /; D: ?; E: 0.2%
#6 O=C(CCn1c(=O)c2cccn2c2ccc(F)cc21)NCCc1ccccc1
  A: 18.4µM*; B: 0.9%; C: 4.4%; D: 20.6µM*; E: -17.3%
#7 COc1ccc(CCNC(=O)Cn2c(=O)n(-c3ccc(F)cc3F)c(=O)c3sccc32)cc1OC
  A: ?; B: 2.5%; C: 0.8%; D: ?; E: 11.5%
#8 COc1ccc(CCNC(=O)Cn2c(=O)n(-c3cc(F)ccc3F)c(=O)c3sccc32)cc1OC
  A: 14.6µM*; B: 3.5%; C: 5.2%; D: ?; E: 15.9%
#9 Cc1ccc(-n2ncc(C(=O)NCc3ccccc3)c2C2CCN(C(=O)OC(C)(C)C)CC2)cc1
  A: ?; B: ?; C: /; D: 20.6µM*; E: 20.2%
#10 CC(C)(C)OC(=O)N1CCC(c2c(C(=O)NCCN3CCC(Cc4ccccc4)CC3)cnn2-c2ccc(F)cc2)CC1
  A: 5.17µM*; B: 1.1%; C: /; D: 5.17µM*; E: ?

11: CC(C)(C)OC(=O)N1CCC(c2c(C(=O)NCc3cccc(Cl)c3)cnn2-c2ccc(F)cc2)CC1
12: CC(C)(C)OC(=O)N1CCC(c2c(C(=O)NCc3ccccn3)cnn2-c2ccccc2)CC1
13: Cc1ccc(C)c(NC(=O)c2nnn(Cc3ccc(F)cc3Cl)c2N)c1
14: COc1ccc(OC)c(NC(=O)c2nnn(Cc3ccc(Br)cc3F)c2N)c1
15: COc1cccc(Cn2nnc(C(=O)Nc3cc(Cl)ccc3OC)c2N)c1
16: Cc1ccc(S(=O)(=O)N2[C@@H](c3ccccc3)C(C(=O)O)=CC[C@H]2c2cccs2)cc1

assay / entry	11	12	13	14	15	16
TDP1 cell noCPT	13µM*	?	6.51µM*	18.4µM*	16.4µM*	-7.4%
TDP1 block	5.3%	1.1%	6.9%	6.5%	4.9%	2.1%
uPA generation	/	/	/	3.5%	?	-4.4%
TDP1 cell CPT	?	?	14.6µM*	8.2µM*	23.1µM*	0.7%
miR-21 reporter	?	3.4%	?	-3.2%	4.1%	/

17: CCOC(=O)C1CCCN(C(=O)c2cc(F)cc(F)c2)CC1 (configuration not stated)
18: CN(C1CCS(=O)(=O)C1)S(=O)(=O)c1ccccc1[N+](=O)[O-] (configuration not stated)
19: O=S(=O)(C/C(=C/CO)S(=O)(=O)c1ccccc1)c1ccccc1
20: NCCNC[C@@H]1COC2(CCCCCCCCCCC2)O1
21: CCc1ccc(-c2cc(C)no2)cc1S(=O)(=O)N1CCOc2ccc(C)cc21
22: CCc1ccc(-c2cc(C)no2)cc1S(=O)(=O)N1CCN(c2ccc(C(C)=O)cc2)CC1

assay / entry	17	18	19	20	21	22
TDP1 cell noCPT	6.6%	?	2.31µM*	23.1µM*	?	18.4µM*
TDP1 block	/	0.0%	0.0%	1.2%	-2.7%	4.1%
uPA generation	/	-5.2%	/	-10.5%	-18.8%	-6.6%
TDP1 cell CPT	-7.7%	-14.3%	0.82µM*	?	?	?
miR-21 reporter	/	-7.9%	?	8.7%	14.3%	19.2%

In a second layout: entries from further up
#	structure	TDP1 cell noCPT	TDP1 block	uPA generation	TDP1 cell CPT	miR-21 reporter
17	CCOC(=O)C1CCCN(C(=O)c2cc(F)cc(F)c2)CC1 (configuration not stated)	6.6%	/	/	-7.7%	/
18	CN(C1CCS(=O)(=O)C1)S(=O)(=O)c1ccccc1[N+](=O)[O-] (configuration not stated)	?	0.0%	-5.2%	-14.3%	-7.9%
19	O=S(=O)(C/C(=C/CO)S(=O)(=O)c1ccccc1)c1ccccc1	2.31µM*	0.0%	/	0.82µM*	?

Further results follow:
23: CC(=O)c1ccc(N2CCN(S(=O)(=O)c3cc4[nH]c(=O)c(=O)[nH]c4cc3C)CC2)cc1
24: CCc1ccc(-c2cc(C)no2)cc1S(=O)(=O)N1CCN(c2cc(C)ccc2C)CC1
25: CCc1nc(-c2ccc(C)c(S(=O)(=O)N3CCN(c4ccc(C(C)=O)cc4)CC3)c2)no1
26: CC(=O)c1ccc(N2CCN(S(=O)(=O)c3cc(-c4cc(C)no4)ccc3C(C)C)CC2)cc1

assay / entry	23	24	25	26
TDP1 cell noCPT	-1.4%	16.4µM*	7.31µM*	?
TDP1 block	-9.9%	1.0%	-3.4%	1.4%
uPA generation	-0.7%	3.9%	/	8.4%
TDP1 cell CPT	3.1%	?	13µM*	?
miR-21 reporter	-25.7%	0.3%	23.2%	-3.7%

Bioassay records from PubChem.
